Earlier results on one compound are cited in US20110027230A1, “COMPOSITIONS COMPRISING PHYTOESTROGENES SELECTIVE FOR ESTROGEN BETA RECEPTOR AND DIETARY FIBRES” (priority 2008, published 2011).

By UniProt entry, the sequences of proteins in these tests, tags left out.
UniProt Q92731, whole entry, species assumed: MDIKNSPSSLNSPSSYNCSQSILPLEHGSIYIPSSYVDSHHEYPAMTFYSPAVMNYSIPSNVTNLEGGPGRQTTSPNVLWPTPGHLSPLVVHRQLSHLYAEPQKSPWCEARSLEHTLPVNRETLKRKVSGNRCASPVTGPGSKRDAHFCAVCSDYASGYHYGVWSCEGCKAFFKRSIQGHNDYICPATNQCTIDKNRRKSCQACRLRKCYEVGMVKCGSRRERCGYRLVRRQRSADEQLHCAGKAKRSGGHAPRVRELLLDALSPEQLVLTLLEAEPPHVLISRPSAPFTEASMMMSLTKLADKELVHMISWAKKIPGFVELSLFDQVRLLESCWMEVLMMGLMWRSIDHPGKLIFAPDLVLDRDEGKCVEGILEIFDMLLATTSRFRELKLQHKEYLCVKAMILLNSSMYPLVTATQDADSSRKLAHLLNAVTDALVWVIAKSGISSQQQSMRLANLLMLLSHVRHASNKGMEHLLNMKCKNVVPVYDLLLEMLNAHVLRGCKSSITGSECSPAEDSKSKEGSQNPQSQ

This data set has as its target ERβ (Homo sapiens, UniProt Q92731). The settings on record: literature; cited from earlier work.

With `C[C@]12CC[C@@H]3c4ccc(O)cc4CC[C@H]3[C@@H]1CC[C@@H]2O` [estrogen, 17β-estradiol], the “Selectivity for estrogen receptors ERβ and ERα” value is on record as “non selective ligand for both receptors”.
